scFv variants of Ab-14 (light chain) against a SARS-CoV-2 spike peptide

Reference: Li et al. 2023, doi:10.1038/s41467-023-39022-2. File: FLAb, binding data.

Antigen: PDVDLGDISGINAS, a 14-residue peptide of the SARS-CoV-2 spike HR2 region.

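The parent was found by panning a naive human phage display library on the peptide. These sequences belong to a second round, designed from the earlier measurements on random variants of the parent. Their group label is 14L_En_HC (En: ensemble of fine-tuned language models; HC: hill climbing; a sequence that several methods proposed may carry one label only). The assay is AlphaSeq: two haploid yeast populations carry antibody and antigen on their surface. The frequency of each diploid, read from paired DNA barcodes, reflects how well the two displayed proteins bind. Read counts were normalised to the haploid input and turned into Kd by a linear fit to BCL2-family pairs of known affinity, for each replicate. There are six technical replicates.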

Each scFv is VH, a (GGGGS)3 linker, VL, as in the parent Ab-14, and differs from it in the CDRs of the light chain only.
VH: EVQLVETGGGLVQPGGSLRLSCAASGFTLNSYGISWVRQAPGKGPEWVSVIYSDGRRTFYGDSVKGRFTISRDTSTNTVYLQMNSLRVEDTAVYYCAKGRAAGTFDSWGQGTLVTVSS
VL: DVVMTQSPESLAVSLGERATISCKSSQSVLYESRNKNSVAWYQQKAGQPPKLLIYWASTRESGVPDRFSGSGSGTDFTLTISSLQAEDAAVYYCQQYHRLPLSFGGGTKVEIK

Each variant is given by its three light chain CDRs, as the data file delimits them; those of the parent are KSSQSVLYESRNKNSVA, WASTRES, QQYHRLPLS.
Scale: log10 of Kd in nM, estimated from mating counts; low values are strong binders.
"nd" marks a missing value. The strain was present, yet no cells mated with the target were sequenced in that replicate, which points to weak or no binding.
The authors' rule: three or more of the six replicates give a measured affinity, fewer mean a poor binder.

| CDR-L1 | CDR-L2 | CDR-L3 | log10 Kd (nM) by replicate | signal with controls |
|---|---|---|---|---|
| KISFQYRYEQLSKDSIA | EAQTRLK | QQYHRLPLS | nd nd nd nd nd nd | 0 of 18 |
| MISDTGLHDSRMQNSVA | NNSTRES | QQYHRLPLS | 1.67 2.07 1.67 1.05 0.85 1.50 | 0 of 18 |
| TISQSYLMENQFKNSVA | QASTRES | QCYDRLPLS | 0.89 0.69 0.76 0.87 0.74 0.67 | 5 of 18 (2.92) |
| MISDTGLHDSRMQNSVA | NNSTREY | QQYHRLPLS | nd 1.76 2.45 1.59 1.88 nd | 1 of 18 (0.87) |
| KLGDMVHTLSRNNNSIA | DMRTRES | QQYYRLPLS | 0.88 1.56 1.29 0.93 1.12 1.35 | 1 of 18 (2.34) |
| KLSMSMLMESFHKNSVA | ENNTREE | QHYHRLPLS | nd nd nd nd nd nd | 1 of 18 (4.10) |
| KISQMSTIESIQHNSVA | QTSTREK | QQYDRLPLS | 0.95 0.81 0.84 0.70 0.67 0.89 | 4 of 18 (3.10) |
| MVGQGLMGESRAKNSIA | QASLRCD | QQYHRLPLI | 0.89 0.82 0.52 0.35 0.48 0.69 | 1 of 18 (2.79) |
| ALGDVTRMESNKVNSIA | DMSNRED | QQYHRLPLS | -0.12 0.09 -0.34 -0.38 -0.26 0.17 | 0 of 18 |
| KVSDSMAFLSRNRNSVA | DNSTRGS | QQYHRLPLS | 0.29 0.39 0.41 0.27 0.31 0.41 | 3 of 18 (4.21) |
| IISQVDAYLTRNKNSIA | DQSTRGS | QQYDRLPLS | 0.45 0.68 0.09 0.35 0.32 0.46 | 1 of 18 (2.82) |
| KLLQEVTGRMQNRNSVA | HNSTRED | QQYDRLPLI | 2.93 0.16 3.00 1.50 0.95 1.85 | 1 of 18 (1.67) |
| KLSQYVGGETRNKSSLA | DNNTRED | QQYERLPLS | 1.37 1.37 0.88 1.94 1.36 1.20 | 0 of 18 |
| MISDMGLHDSRIQQSVA | NNSTREA | QQYDRLPLS | 2.03 nd 1.60 1.86 1.95 1.10 | 1 of 18 (2.93) |
| MISDLPMYGSRNKNSVA | DLSTRGS | QQYHRLPLS | 0.23 0.11 -0.11 -0.01 -0.35 -0.20 | 1 of 18 (2.52) |
| KITQLVMETSKNRNNVA | EVSTLPD | QQYHRLPLS | 0.12 -0.35 0.05 0.04 -0.06 0.25 | 0 of 18 |
| KIGQQVTYESTVNNAIA | QMTTREE | QQYHRLPLS | 0.94 0.91 0.89 0.57 0.71 1.10 | 3 of 18 (2.96) |
| TISQSFMMENQFKNSVA | QAQTRES | QCYDRLPLS | 2.28 1.67 nd 1.37 2.16 1.74 | 2 of 18 (3.06) |
| KIGHGLTTESRNRNSVA | QTETRVQ | QHYHRLPLS | nd 2.53 nd 2.74 nd nd | 1 of 18 (2.54) |
| KLYQNVGTMSHNKASIA | DMERRED | QQYHRLPLS | nd nd nd nd nd nd | 0 of 18 |
| KIGGVTNGISRGKNSVA | EQSTRED | QQYNRLPLS | 0.45 0.50 0.03 0.40 0.03 0.35 | 2 of 18 (1.96) |
| IISQVDAYELRNKNSIA | DQSTRGS | QQYDRLPLS | 0.67 0.30 0.30 0.45 0.13 0.51 | 0 of 18 |
| KLSASMYRESMHENNVA | DLRARVE | QQYHRLPLS | 0.50 0.48 1.47 0.69 0.83 0.87 | 0 of 18 |
| KLGNMTGIESHAKNSLA | DANRRED | QQYHRLPLS | -0.13 0.14 0.09 0.19 -0.01 0.38 | 0 of 18 |
| MFSQLFMYGSRNPNSVA | QASTRES | QQYDRLPLI | 0.72 0.25 0.90 0.56 0.68 1.01 | 0 of 18 |
| KLGGVTEYEMRNKNSVA | QMTTRES | QQYDRLPLS | 0.37 0.36 0.17 0.18 0.30 0.36 | 2 of 18 (2.86) |
| MISDLTYLGLRNVNSVA | DLSTRGN | QQYDRLPLS | 1.63 1.25 1.96 1.35 1.29 1.23 | 2 of 18 (3.19) |
| TISQSAQMESHNKNSVA | DLNLRGQ | QQYDRLPLS | 0.20 -0.05 0.00 -0.41 -0.10 0.11 | 1 of 18 (3.43) |
| KLYQSVGTMMHNKQSIA | DMERRMD | QQYHRLPLS | -0.20 -0.27 -0.32 -0.27 -0.57 -0.40 | 0 of 18 |
| HISPLFMVESKLKNSVA | QTETRVE | QQYDRLPLS | 0.66 0.67 0.64 0.64 0.59 0.91 | 1 of 18 (3.00) |
| HISEMIFAQMKARNSVA | ENNTRED | QQYDRLPLS | 3.06 1.51 2.24 2.15 4.35 2.56 | 2 of 18 (3.65) |
| KISMLFNYASTNKNSIA | EMTTRES | QHYHRLPLS | 1.31 1.40 0.79 1.33 1.06 1.94 | 0 of 18 |
| KIGHGLTTEMYNRNSVA | QTETRVE | QHYHRLPLS | 1.90 1.57 1.95 1.57 2.70 1.99 | 2 of 18 (2.44) |
| KLPQSTMQESVSKNSVA | ELSTRGA | QQYHRLPLS | 0.77 0.43 0.35 0.01 0.73 0.54 | 2 of 18 (2.77) |
| TISQSAMQESHNKNSVA | DLSVRGS | QQYDRLPLS | nd nd nd nd nd nd | 0 of 18 |
| TISNSFMMENQFKNSVA | QAQTRES | QCYDRLPLS | 1.22 1.03 0.84 0.70 1.02 0.73 | 4 of 18 (2.75) |
| TISYSALMTGNNRNSVA | QAEERLE | QQYHRLPLS | 0.23 0.06 0.17 0.15 -0.11 0.18 | 1 of 18 (2.95) |
| KLRQVTGYESYQKNSVA | QTSTRAS | QDYHRLPLS | 0.99 0.56 0.80 0.74 0.80 1.22 | 1 of 18 (2.53) |
| MISDLTYMGLRNVNSVA | DLSTRGN | QQYDRLPLS | 0.50 0.38 0.85 0.42 0.61 0.71 | 0 of 18 |
| TVSQVHEMLSRNKNSVA | DMNTREN | QQYDRLPLS | -0.13 -0.17 -0.21 -0.42 0.02 0.14 | 1 of 18 (0.71) |
| KLSAFYRMESRNKNSVA | DNSTRES | QQYDRLPLS | 1.86 1.66 1.84 1.52 1.53 nd | 3 of 18 (2.37) |
| MISDLTMYGSSNKNSVA | DLSTRGS | QQYHRLPLS | -0.15 -0.02 0.31 -0.30 -0.26 -0.16 | 0 of 18 |
| KIGHGLTTESRNKNSVA | QTETRLS | QHYHRLPLS | nd 2.07 3.07 2.94 2.20 2.55 | 2 of 18 (2.59) |
| KLSQVTHSESRLKNSIA | EMVTREV | QQYDRLPLS | 1.22 0.97 1.06 1.20 0.54 0.94 | 1 of 18 (1.76) |

Repeated from above, the 5 best binders with a signal in all replicates:

CDR-L1,CDR-L2,CDR-L3,log10 Kd (nM) by replicate,signal with controls
KLYQSVGTMMHNKQSIA,DMERRMD,QQYHRLPLS,-0.20 -0.27 -0.32 -0.27 -0.57 -0.40,0 of 18
ALGDVTRMESNKVNSIA,DMSNRED,QQYHRLPLS,-0.12 0.09 -0.34 -0.38 -0.26 0.17,0 of 18
TVSQVHEMLSRNKNSVA,DMNTREN,QQYDRLPLS,-0.13 -0.17 -0.21 -0.42 0.02 0.14,1 of 18 (0.71)
MISDLTMYGSSNKNSVA,DLSTRGS,QQYHRLPLS,-0.15 -0.02 0.31 -0.30 -0.26 -0.16,0 of 18
MISDLPMYGSRNKNSVA,DLSTRGS,QQYHRLPLS,0.23 0.11 -0.11 -0.01 -0.35 -0.20,1 of 18 (2.52)

As a blank, each scFv also met three strains without target: over all light chain designs, 4% of these pairings were detected, typically at 2.64 and seldom below 1.59. Also given: how often the same scFv was detected with the empty control strains, with their mean in brackets.
A sequence measured in both rounds can read differently, since the two assays cover different ranges.
The parent sequence was in this pool as ten entries: three were never detected, three once, and four in most replicates, with averages from 0.34 to 2.37.